From PubChem BioAssay
Rows were chosen to be rich in hits. Some 16% of all compounds tested hit in one or more screens of this group.
miR-21 reporter = raises the signal of a miR-21 reporter; Potency, µM (doses to about 38.3 µM); HeLa miR-21 FLuc reporter, luciferase, 48 h; AID 2288; 340,000 tested, under 10 active; active = well fitted rising curve with a large enough effect; inconclusive = small, poorly fitted or top-dose-only effect; inactive = no such curve, though single readings can be large or run the other way;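 further: miR-21 action dims this reporter so a rising signal means less miR-21 action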
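Luminescence from a firefly luciferase reporter carrying a miR-21 binding site downstream, stably expressed under a CMV promoter in HeLa cells that make miR-21 endogenously, reports miRNA modulation after 48 h compound exposure up to approximately 40uM final.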
uPA generation = inhibitors of cell surface uPA generation. cell surface uPA generation assay, qHTS. Potency, µM (titrated, usually from 38.3 µM), actives largely listed as inhibitors. 330,000 compounds, 0.31% hits. AID 540303; active = well fitted inhibition curve with a large enough effect; inconclusive = small, poorly fitted or top-dose-only effect; inactive = no such curve, though single readings can be large or run the other way; tested in mouse RAW 264.7 cells; note: nearly all actives have a fitted effect of over 55% in size
TDP1 block = blocks human tyrosyl-DNA phosphodiesterase 1; AID 485290; Potency, µM (top dose mostly 130 µM), actives largely listed as inhibitors; 350,000 compounds, 0.28% hits; recombinant TDP1, AlphaScreen DNA substrate cleavage; note: nearly all actives have a fitted effect of over 40% in size
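Recombinant human Tdp1 (E. coli-expressed, 1 nM final) preincubated with compounds 15 min at room temperature, then 5'-biotin/3'-phosphotyrosine-FITC DNA substrate (15 nM final) added for 5 min. AlphaScreen beads (10 ug/ml final) added 10 min; cleavage lowers signal.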
TDP1 cell CPT = growth inhibition of DT40 Tdp1-/-;hTDP1 cells with camptothecin (screen for TDP1 inhibitors); Potency, µM (titrated, usually from 46.2 µM), actives largely listed as inhibitors; chicken DT40 Tdp1-/-;hTDP1 cells + 20 nM CPT, ATP luminescence, 48 h; 420,000 compounds, 12% hits; AID 686979; note: nearly all actives have a fitted effect of over 55% in size
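Chicken DT40 Tdp1-/- cells complemented with human TDP1, 400 cells/well, exposed to compounds plus 20 nM camptothecin for at least 48 h at 37 C; viability read as ATP content by CellTiter-Glo luminescence.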
DT40 TDP1 no CPT = qHTS for Inhibitors of human tyrosyl-DNA phosphodiesterase 1 (TDP1): qHTS in cells in absence of CPT. DT40 Tdp1-/- hTDP1 cells, no CPT, ATP luminescence, 48 h. Potency, µM (top dose mostly 46.2 µM), most hits filed as inhibitors. 420,000 compounds, 15% hits. AID 686978, 2013; note: nearly all actives have a fitted effect of over 55% in size
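Camptothecin absent (DMSO only). Human TDP1-complemented DT40 knockout cells, 400 cells/well, 37 °C for minimum 48 hr; ATP measured via CellTiter-Glo, 30 min dark incubation, luminescence.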
Numbers stand for hits; - = inactive; ? = inconclusive; . = no result; ! = not confirmed by another sample; [ ] = dose if it differs, or a comment. Unless noted, calls come from the whole dose curve; as a rule, active = well fitted curve in the direction sought with a large enough effect; inconclusive = small, poorly fitted or top-dose-only effect, or another doubt; inactive = no such curve, though single readings can be large; an effect the other way counts as inactive or inconclusive.

SMILES	miR-21 reporter	uPA generation	TDP1 block	TDP1 cell CPT	DT40 TDP1 no CPT
CCOc1cc(CNCCc2ccccc2)ccc1OCC(=O)NC(C)(C)C	-	-	-	18µM	21µM
CNCc1cc(Br)c(OCC(=O)Nc2ccccc2OC)c(OC)c1	-	-	-	-	?
COc1cc(CNCCc2ccccc2)cc(Br)c1OCC(=O)Nc1ccccc1C	-	-	-	?	26µM
Cc1ccc(C(=O)COC(=O)CN2C(=O)C3C4CC(C(Br)C4Br)C3C2=O)cc1 (configuration not stated)	-	-	-	-	-
COCc1cc(=O)[nH]c(Nc2nc3ccccc3o2)n1	-	-	-	10µM	8.9µM
CCOC(=O)Cc1cc(=O)[nH]c(Nc2nc3ccccc3o2)n1	-	-	-	?	?
Cc1ccc2oc(Nc3nc(-c4ccccc4)cc(=O)[nH]3)nc2c1	-	-	-	3.3µM	4.6µM
COCc1cc(=O)[nH]c(Nc2nc(C)c3ccccc3n2)n1	-	-	-	21µM	16µM
CCN(C[C@H]1N[C@@](Cc2ccccc2)(C(=O)OC)[C@H]2C(=O)N(Cc3ccccc3)C(=O)[C@@H]12)C(=O)COC	.	-	-	-	-
Cc1ccc2c(=O)c(C(=O)NCc3cccs3)c[nH]c2c1	-	-	-	-	?
COc1cc2c(cc1OC)C(C)N(C(=O)c1cc(Cl)nc(Cl)c1)CC2 (configuration not stated)	-	?	.	7.3µM	?
COc1cc2c(cc1OC)C(C)N(Cc1ccc3c(c1)OCO3)CC2 (configuration not stated)	-	?	-	?	18µM
COc1cc2c(cc1OC)C(C)N(C(=O)c1ccc(Br)o1)CC2 (configuration not stated)	-	-	-	?	16µM
COC(=O)N1CCc2cc(OC)c(OC)cc2C1Cc1ccc(OC)cc1 (configuration not stated)	.	.	-[21 µM]	.	.
CCc1c(O)nc(SCC(=O)N2CCc3cc(OC)c(OC)cc3[C@@H]2C)[nH]c1=O	-	-	.	-	-
COC(=O)C1CCN(CC(=O)Nc2ccc(OC)c(Cl)c2)CC1	-	-	-	-	-
CSc1ccccc1NC(=O)CN(C)C(=O)Cc1c[nH]c2ccccc12	.	-	-	-	-
CCCCOP(=O)(OCCCC)C(Nc1ccccc1)c1ccc2c(c1)OCO2 (configuration not stated)	-	-	-	?	13µM
CCOP(=O)(OCC)C(Nc1ccccc1)c1ccc2c(c1)OCO2 (configuration not stated)	-	-	-	13µM	?
CCCOP(=O)(OCCC)C(Nc1ccc(C(=O)O)cc1)c1ccccc1 (configuration not stated)	-	-	-	-	-
CC(OC(=O)CNC(=O)C12CC3CC(CC(C3)C1)C2)C(=O)Nc1ncc(Cl)cc1Cl (configuration not stated)	-	-	-	?	-
O=C(COC(=O)c1ccco1)Nc1ccccc1	-	-	-	-	-
Clc1ccc2c(c1)C(N1CCNCC1)=Nc1ccccc1O2	-	-	?	15µM!	7.3µM!
COc1ccc2ccccc2c1CNC(=O)CC1C(=O)NCCN1CC(C)C (configuration not stated)	-	-	.	?	?
COc1ccc(CC(=O)NCCc2cnc[nH]2)cc1	-	-	.	-	-
SMILES	miR-21 reporter	uPA generation	TDP1 block	TDP1 cell CPT	DT40 TDP1 no CPT
CCC(=O)/C=C1/Sc2ccc(OC)cc2N1CCO	-	-	-	?	?
CCO/C(=C/c1sc2ccc(OC)cc2[n+]1CCCS(=O)(=O)[O-])CC	-	-	-	-	-
COc1ccc2sc(SCCCS(=O)(=O)O)[n+](CCCS(=O)(=O)[O-])c2c1	-	-	-	?	?
CCC(/C=C1\Sc2ccc(OC)cc2N1CCO)=C\c1sc2ccc(OC)cc2[n+]1CCO	-	-	-	3.3µM	5.2µM
CCC(/C=C1\Sc2ccc(OC)cc2N1CC)=C\c1sc2ccc(OC)cc2[n+]1CCCS(=O)(=O)[O-]	-	-	-	3.3µM	1.8µM
CCC(=O)/C=C1/Sc2ccc(OC)cc2N1CC	-	-	-	10µM	?
Cc1ccccc1NC(=O)C1CCN(S(=O)(=O)c2ccc3c(c2)NC(=O)C(C)S3)CC1 (configuration not stated)	-	-	-	-	-
C=CCN(c1ccccc1OC)S(=O)(=O)c1cccc(C(=O)NCC(c2ccc(OC)cc2)N2CCCC2)c1 (configuration not stated)	.	-	.	3.7µM	7.3µM
C=CCN(c1ccccc1)S(=O)(=O)c1cccc(C(=O)NCC(c2ccc(OC)cc2)N2CCCCC2)c1 (configuration not stated)	.	-	-	5.8µM	5.8µM
CCN(c1ccccc1)S(=O)(=O)c1cccc(C(=O)NCC(c2ccc(OC)cc2)N2CCCCC2)c1 (configuration not stated)	.	.	.	18µM	8.2µM
COc1ccc(OCC(=O)NC(=S)NNC(=O)COc2ccc(Br)cc2Cl)cc1	-	-	-	-	?
O=c1onc(-c2ccccc2)c2ccccc12	.	-	.	-	-
COC(=O)c1ccc(-c2cc3onc(-c4ccccc4)c3c(=O)n2C)cc1	.	-	-	23µM	?
COc1ccc(-c2cc3onc(-c4c(Cl)cccc4Cl)c3c(=O)n2C)cc1	.	?	-	?	?
Cn1c(-c2ccc(F)c(F)c2)cc2onc(-c3ccccc3)c2c1=O	.	-	.	16µM	23µM
CN(C)C(=O)c1ccc(-c2cc3onc(-c4ccccc4)c3c(=O)n2C)cc1	.	-	-	?	16µM
COc1ccccc1OCc1cc(C(=O)NCCN2CCCC(O)C2)no1 (configuration not stated)	-	-	-	-	-
O=C(Cc1ccc2c(c1)OCCO2)Nc1ccc(Cl)c(S(=O)(=O)N2CCOCC2)c1	.	-	-	?	-
COc1ccc(CCNC(=O)c2ccc3c(c2)N(Cc2ccc(F)cc2)CCS3)c(OC)c1	-	-	-	15µM	13µM
COc1ccc(CCNC(=O)c2ccc3c(c2)N(Cc2ccc(F)cc2)C(=O)CS3)cc1OC	?	.	-	15µM	16µM
CN(C)CCNC(=O)c1ccc2c(c1)N(Cc1ccc(F)cc1)CCS2	-	-	-	26µM	16µM
COc1ccc(OC)c(CCNC(=O)c2ccc3c(c2)N(Cc2ccc(F)cc2)CCS3)c1	-	-	-	21µM	?
CCOc1ccc(CNC(=O)c2ccc3c(c2)N(CC)CCS3)cc1	-	-	-	?	?
COc1ccc(CCNC(=O)c2ccc3c(c2)N(Cc2ccc(C)cc2)CCS3)cc1OC	-	-	-	18µM	16µM
O=C(NCc1ccc(F)cc1)c1ccc2c(c1)N(Cc1ccc(F)cc1Cl)C(=O)CS2	-	.	-	-	-
COc1ccc(CNC(=O)c2ccc3c(c2)N(Cc2ccc(C)cc2)CCS3)cc1	-	.	-	?	?
